These results are taken from patent EP4684787A1, “PHARMACEUTICAL COMPOSITION CONTAINING DIPEPTIDYL PEPTIDASE SMALL MOLECULE INHIBITOR” (Haisco Pharmaceuticals Pte. Ltd., priority 2023, dated 2024).

The term IC50 denotes the point on the concentration scale where inhibition reaches its midpoint.

The target in this experiment is Recombinant human DPP1 enzyme. The following applies: substrate Gly-Arg-AMC, fluorescence.

`Cn1c(=O)oc2ccc(-c3ccc(C[C@@H](C#N)NC(=O)[C@@H]4CNCCCO4)c(F)c3)cc21` [Compound A, (S)-N-((S)-1-cyano-2-(2-fluoro-4-(3-methyl-2-oxo-2,3-dihydrobenzo[d]oxazol-5-yl)phenyl)ethyl)-1,4-oxazepane-2-carboxamide]: the IC50 worked out at 1.6 nM.
